For the series, the system named is colon tumor cells. Kind of series: Disinfection of trimmed colon tumor pieces before dissociation: tumor cell viability, yield, potency. Type of series: cell-based, human. The following applies: for Potency: per patient tumor sample. From the text:
For pathological staging purposes, the pathologist cuts the tumor to determine the deepest margin of penetration. Consequently, the excised tumors are comprised of several pieces of tumor tissue. The tissue was dissected to remove extraneous non-tumor and necrotic tissue. The trimmed tumor pieces were further subdivided to achieve homogeneity and divided into two to four groups for processing according to the experimental design. The tissue was divided as evenly as possible among the samples, taking care to make the tumor pieces in the experimental groups appear as identical as possible. The trimmed pieces were added to a tube containing 40 mL of disinfectant and then treated by shaking for 2 minutes at 200 rpm on a rotating platform shaker. The trimmed tumor pieces were then washed three times with HBSS and then dissociated. The amount of tumor dissociated was determined by weighing the tumor fragments prior to dissociation and after completion of the dissociation cycles. After dissociation, the tumor cell suspension was sampled for percent tumor cell viability, number of viable tumor cells, tumor cell potency and bioburden. The yield was defined as the number of viable tumor cells obtained per gram of tumor that was actually dissociated. The bioburden was normalized to CFU/10^7 viable tumor cells, approximately one dose of product.
Tumor sample 500-0051-KNO was washed with saline, a second wash with 1% Triton X-100 and followed by three additional saline washes (see Example 1). The resultant bioburden was below the limit of detection of the assay. In order to evaluate the ability of a disinfectant to remove bioburden, one to two logs of bioburden must be detectable in the control sample. In order to maximize the possible bioburden in the tumors and present a greater challenge to the disinfectant, the following modifications to the procedure were made: the tumors were minimally washed (one 500 mL quantity) prior to pathological dissection; the dissociations were performed in the absence of gentamicin.

Values joined by “and” are separate entries in the source; they are usually repeats but may differ in a detail not shown here. Identical values can stand only once. “Also recorded” adds a separate entry of the source.

With sodium oxychlorosene [Clorpactin ®], the Potency is, setting by setting: (0.4% Clorpactin, 2 successive 2 min treatments) 98% and 97%; (0.4% Clorpactin, one 2 min treatment) 99% and 98% and 97% and 100% and 94%; (0.8% Clorpactin, 2 min) 96%. Moreover, the “effect on yield of viable tumor cells (in words)” value (Clorpactin at 0.8% compared with 0.4%) is on record as “further reduction in the yield of viable tumor cells”. Moreover, the “effect of disinfectant on tumor cell yield (in words)” value (treatment of trimmed tumor pieces, relative to control) is “more moderate reduction in tumor cell yield relative to the control; also recorded: only moderate losses in cell yield relative to the control”.

For the origin of these results see US7628996B2, “Sterile immunogenic non-tumorigenic tumor cell compositions and methods” (priority 2002, dated 2009).
